pIC50: −log10 of the molar value. Where two headings read alike, the source gives them in different places.
Columns and labels:
[1] = system: lethal dose of LPS (endotoxemia); conditions: 15 mg/kg LPS intraperitoneal; compound 10 mg/kg intravenously ninety minutes later; summed across multiple repeat experiments
[2] = system: LPS induced IL-6 secretion from whole blood; assay: Measurement of LPS Induced IL-6 Secretion from Whole Blood; assay type: cell-based; conditions: LPS 200 ng/ml, 24 hours, immunoassay, read-out: pIC50 (IL-6 levels) (converted)
Procedure: (§1) Activation of monocytic cells by agonists of toll-like receptors such as bacterial lipopolysaccharide (LPS) results in production of key inflammatory mediators including IL-6. Such pathways are widely considered to be central to the pathophysiology of a range of auto-immune and inflammatory disorders.
(§2) After further incubation for 24 hours at 37 degrees, 140 ul of PBS are added to each well. The plates are sealed, shaken for 10 minutes and then centrifuged (2500 rpm×10 min). 100 ul of the supernatant are removed and IL-6 levels assayed by immunoassay (typically by MesoScale Discovery technology) either immediately or following storage at −20 degrees.

[3] = system: Human cell lines (n=33 comprising 15 heme cell lines, 14 breast cell lines and 4 other cell lines); assay: cells; conditions: 72 h
[4] = system: TNFα levels in LPS stimulated whole blood; assay: LPS Stimulated Whole Blood Measuring TNFα Levels Assay; assay type: cell-based; conditions: 24 h, LPS 200 ng/ml, immunoassay, read-out: pIC50 (TNFα levels) (converted)
Procedure: as §1, with “TNFα.” for “IL-6.”
as §2, with “TNFα” for “IL-6”

CCNC(=O)C[C@@H]1N=C(c2ccc(Cl)cc2)c2cc(OC)ccc2-n2c(C)nnc21 [Example 1, 2-[(4S)-6-(4-Chlorophenyl)-1-methyl-8-(methyloxy)-4H-[1,2,4]triazolo[4,3-a][1,4]benzodiazepin-4-yl]-N-ethylacetamide]
Animals surviving at 4 days, percent [1]: (52%)
Numbers of animals surviving at 4 days [1]: 24/56
IC50 [2]: ≤ 10 µM
pIC50 ([3]; read-out: gIC50, across all cell lines): 4.53 to 6.79
pIC50 ([3]; read-out: gIC50, breast cell lines): 4.53 to 6.39
pIC50 ([3]; read-out: gIC50, heme cell lines): 5.61 to 6.79

CCNC(=O)C[C@H]1N=C(c2ccc(Cl)cc2)c2cc(OC)ccc2-n2c(C)nnc21 [Example 81]
IC50 [4]: ≤ 10 µM
IC50 [2]: > 10 µM
